Our source for the Kd values is patent US5336483A (priority 1993, dated 1994).

A word on the Kd: it is a measure of binding affinity in units of concentration.

In the test the target is κ2 receptor. The test is described as follows: Displacement of [^3 H]BRM (bremazocine), κ2 receptor binding, guinea pig brain membranes depleted of μ and δ sites. Conditions: [^3 H]bremazocine; read-out: Kd of radioligand.

Take `CCC12CCN(CC3(O)CC3)C(Cc3ccc(O)cc31)C2(C)C` (stereo not shown) [[^3 H] BRM, reference compound]: the Kd came to 1 nM.
